In PubChem BioAssay (NCI):
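How tested: cells in 96-well plates exposed to compound for 48 hours at five concentrations. TGI marks complete inhibition of growth.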

Assays:
Assay in all cases: DTP human tumour cell line panel, 48 h
[1] = test system: CAKI-1 renal
[2] = test system: SK-OV-3 ovarian
[3] = test system: SF-539 CNS
[4] = test system: 786-0 renal
[5] = test system: OVCAR-5 ovarian
[6] = test system: MALME-3M melanoma
[7] = test system: LOX IMVI melanoma
[8] = test system: TK-10 renal
[9] = test system: OVCAR-3 ovarian
[10] = test system: SK-MEL-28 melanoma
[11] = test system: SF-295 CNS
[12] = test system: UACC-62 melanoma
[13] = test system: HCT-116 colon
[14] = test system: MOLT-4 leukemia
[15] = test system: MDA-N
[16] = test system: KM12 colon
[17] = test system: MCF7 breast
[18] = test system: A498 renal
[19] = test system: SK-MEL-2 melanoma
[20] = test system: OVCAR-4 ovarian
[21] = test system: SN12C renal
[22] = test system: CCRF-CEM leukemia
[23] = test system: MDA-MB-435
[24] = test system: COLO 205 colon
[25] = test system: MDA-MB-231 breast
[26] = test system: NCI-H23 lung
[27] = test system: HT29 colon
[28] = test system: NCI-H522 lung
[29] = test system: EKVX NSCLC
[30] = test system: HOP-62 NSCLC
[31] = test system: SF-268 CNS
[32] = test system: SK-MEL-5 melanoma
[33] = test system: SW-620 colon
[34] = test system: NCI-H226 lung
[35] = test system: PC-3 prostate
[36] = test system: K-562 leukemia
[37] = test system: DU-145 prostate
[38] = test system: NCI/ADR-RES ovarian
[39] = test system: HOP-92 NSCLC
[40] = test system: M14 melanoma
[41] = test system: U251 CNS
[42] = test system: IGROV1 ovarian
[43] = test system: UO-31 renal
[44] = test system: OVCAR-8 ovarian
[45] = test system: A549 NSCLC
[46] = test system: HL-60(TB) leukemia
[47] = test system: HCT-15 colon
[48] = test system: RPMI-8226 leukemia
[49] = test system: BT-549 breast
[50] = test system: SNB-19 CNS
[51] = test system: T-47D breast
[52] = test system: SR leukemia
[53] = test system: ACHN renal

O=C(Cc1ccc(Cl)c(Cl)c1)N[C@@H]1CCCC[C@@H]1N1CCCC1
TGI [1]: > 100 µM | TGI [2]: > 100 µM | TGI [3]: > 100 µM | TGI [4]: > 100 µM | TGI [5]: > 100 µM | TGI [6]: 39.5 µM | TGI [7]: > 100 µM | TGI [8]: 87.6 µM | TGI [9]: > 100 µM | TGI [10]: 58.7 µM | TGI [11]: 96.9 µM | TGI [12]: 37.4 µM | TGI [13]: > 100 µM | TGI [14]: > 100 µM | TGI [15]: > 100 µM | TGI [16]: > 100 µM | TGI [17]: > 100 µM | TGI [18]: > 100 µM | TGI [19]: > 100 µM | TGI [20]: > 100 µM | TGI [21]: > 100 µM | TGI [22]: > 100 µM | TGI [23]: > 100 µM | TGI [24]: 39.2 µM | TGI [25]: > 100 µM | TGI [26]: > 100 µM | TGI [27]: > 100 µM | TGI [28]: > 100 µM | TGI [29]: > 100 µM | TGI [30]: > 100 µM | TGI [31]: > 100 µM | TGI [32]: 35.1 µM | TGI [33]: > 100 µM | TGI [34]: > 100 µM | TGI [35]: > 100 µM | TGI [36]: > 100 µM | TGI [37]: > 100 µM | TGI [38]: > 100 µM | TGI [39]: > 100 µM | TGI [40]: 64.3 µM | TGI [41]: > 100 µM | TGI [42]: > 100 µM | TGI [43]: > 100 µM | TGI [44]: > 100 µM | TGI [45]: > 100 µM | TGI [46]: > 100 µM | TGI [47]: > 100 µM | TGI [48]: > 100 µM | TGI [49]: > 100 µM | TGI [50]: > 100 µM | TGI [51]: > 100 µM | TGI [52]: > 100 µM | TGI [53]: > 100 µM
